Results: article PMC4777244, “Activation of transient receptor potential ankyrin 1 induces CGRP release from spinal cord synaptosomes” (Pharmacology Research & Perspectives, 2015)

Sequences of proteins named here, by UniProt entry; tags and fusion partners are left off.
UniProt Q6RI86, whole entry: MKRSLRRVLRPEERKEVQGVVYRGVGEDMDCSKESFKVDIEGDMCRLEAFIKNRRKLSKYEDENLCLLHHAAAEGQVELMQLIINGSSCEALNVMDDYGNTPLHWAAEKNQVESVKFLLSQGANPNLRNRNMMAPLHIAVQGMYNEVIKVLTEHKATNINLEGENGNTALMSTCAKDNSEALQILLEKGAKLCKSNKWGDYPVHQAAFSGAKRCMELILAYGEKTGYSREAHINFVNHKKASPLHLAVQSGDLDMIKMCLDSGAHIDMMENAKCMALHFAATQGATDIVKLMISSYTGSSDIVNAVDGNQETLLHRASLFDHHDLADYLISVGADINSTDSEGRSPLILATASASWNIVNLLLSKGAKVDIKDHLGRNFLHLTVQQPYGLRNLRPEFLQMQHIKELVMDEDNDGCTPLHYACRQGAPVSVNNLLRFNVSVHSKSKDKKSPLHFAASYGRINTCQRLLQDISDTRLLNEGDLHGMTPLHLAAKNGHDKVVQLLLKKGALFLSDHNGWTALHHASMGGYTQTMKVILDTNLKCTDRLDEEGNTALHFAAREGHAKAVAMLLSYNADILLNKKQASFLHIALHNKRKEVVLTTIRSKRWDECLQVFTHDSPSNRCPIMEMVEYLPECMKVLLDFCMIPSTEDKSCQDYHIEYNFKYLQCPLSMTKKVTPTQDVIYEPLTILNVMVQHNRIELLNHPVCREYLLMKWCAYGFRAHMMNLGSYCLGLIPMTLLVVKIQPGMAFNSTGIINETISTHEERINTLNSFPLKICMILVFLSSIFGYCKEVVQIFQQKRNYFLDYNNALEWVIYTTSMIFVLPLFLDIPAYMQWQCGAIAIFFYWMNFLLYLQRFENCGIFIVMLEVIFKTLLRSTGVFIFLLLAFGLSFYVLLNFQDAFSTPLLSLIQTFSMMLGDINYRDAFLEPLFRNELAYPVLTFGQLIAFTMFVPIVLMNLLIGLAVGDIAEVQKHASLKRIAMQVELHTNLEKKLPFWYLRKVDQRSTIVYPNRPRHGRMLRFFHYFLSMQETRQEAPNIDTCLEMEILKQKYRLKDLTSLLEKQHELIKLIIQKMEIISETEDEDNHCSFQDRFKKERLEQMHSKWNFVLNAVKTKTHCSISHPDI

What was measured:
TRPA1 = target: T1, TRPA1 (Rattus norvegicus, UniProt Q6RI86); assay: cell-based; conditions: EC50 of CGRP release
T1 construct: TRPA1 natively expressed on the central terminals of dorsal root ganglion neurons; from tissue; host or cells: lumbar spinal cord homogenate (synaptosomes) of adult male Sprague Dawley rats

opioid receptors = conditions: 10 μmol/L morphine, NS

Structure (SMILES)	EC50 (TRPA1) [µM]	CGRP release evoked by 40 mmol/L KCl in the presence of morphine (opioid receptors; 40 mmol/L KCl) [% over basal release]	CGRP release evoked by 60 mmol/L KCl in the presence of morphine (opioid receptors; 60 mmol/L KCl) [% over basal release]
C=CCN=C=S [AITC, allyl‐isothiocyanate]	17.1 ± 0.77		
CN1CC[C@]23c4c5ccc(O)c4O[C@H]2[C@@H](O)C=C[C@H]3[C@H]1C5 [morphine]		62 ± 5	103 ± 6
